{"sequences": {"note": "By UniProt entry, the sequences of proteins in these tests, tags left out. Where a name states a change or a piece, a line headed by the entry shows the natural chain unless it says otherwise.", "UniProt Q9GZQ6": "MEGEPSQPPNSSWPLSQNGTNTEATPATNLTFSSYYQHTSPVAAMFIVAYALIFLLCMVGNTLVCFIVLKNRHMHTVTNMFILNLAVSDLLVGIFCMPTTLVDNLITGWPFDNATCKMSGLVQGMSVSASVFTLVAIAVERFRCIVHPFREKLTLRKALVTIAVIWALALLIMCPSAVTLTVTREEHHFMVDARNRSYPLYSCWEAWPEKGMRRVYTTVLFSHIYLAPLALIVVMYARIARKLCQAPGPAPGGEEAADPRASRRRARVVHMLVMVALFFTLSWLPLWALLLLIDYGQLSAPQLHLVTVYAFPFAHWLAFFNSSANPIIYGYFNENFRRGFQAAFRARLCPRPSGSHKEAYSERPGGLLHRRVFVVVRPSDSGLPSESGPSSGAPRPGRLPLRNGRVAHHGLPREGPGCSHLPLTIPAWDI"}, "source": "patent US20070117840A1", "about": "“Receptor antagonist” (priority 2004, published 2007)", "molecular_target": "T1, human-type OT7T022 (Homo sapiens, UniProt Q9GZQ6)", "T1 construct": "expressed in transfected cells; host or cells: CHO cells (membrane fraction)", "assay": "Binding inhibiting activity using human-type OT7T022-expressing CHO cell (125I-Y-RFRP-3)", "settings": "compared with endogenous human-type RFRP-3 (hRFRP-3-28)", "protocol": "Assessment of Binding Inhibiting Activity of Test Compound Using Human-Type OT7T022-Expressing CHO Cell\n(1) Preparation of Iodine-Labeled Entity of Human-Type RFRP-3 (Y-RFRP-3)\nA part thereof was 1/100 diluted, radioactivity was measured with a γ-counter, and the remaining authentic product was distributed, which was stored at −30° C.\n(2) Assessment of Binding Inhibiting Activity\nTo a 96-well microplate were added 1 μg of a membrane fraction, a compound and Y-RFRP-3 labeled with ^125I, which had been diluted with a reaction buffer (50 mM Tris-HCl, 5 mM EDTA, 0.1% BSA, 0.5 mM PMSF, 20 μg/ml leupeptin, 0.1 μg/ml pepstatin A, 4 μg/ml E-64, 10 mM MgCl2, pH 7.5), to 100 pM to react them at room temperature for 1.5 hours. For measuring non-specific binding, non-labeled Y-RFRP-3 was further added to […]. Then, a membrane fraction was transferred to a unifilter GF/C (Perkin Elmer) by filtering the reaction solution using a cell harvester (Perkin Elmer), and this was washed with a cooled 50 mM Tris buffer (pH 7.5) five times. The filter was dried, Microsinti (Packard) was added to the filter, and radioactivity was measured with Topcount (Packard).\nA binding inhibiting rate (IC50 value) of a test compound is shown in [Table 1].", "data": [{"substance": "Val-Pro-Asn-Leu-Pro-Gln-Arg-Phe-amide [hRFRP-3-8, reference compound]", "values": [{"measurement": "binding inhibiting activity for human-type OT7T022-expressing CHO cell", "result": "equivalent to that of endogenous human-type RFRP-3 (hRFRP-3-28)"}]}]}
